pIC50: −log10 of the molar value.
Target: Signal transducer and activator of transcription 3 (Homo sapiens, UniProt P40763)
Assay: Bioassay Evaluation: Compound samples (in 3-5 mg quantities) were evaluated in a variety of assays. All compound submissions were fully characterized (1H, 13C, IR, HRMS), satisfied purity criteria (≥95% LC/MC, ELS).
Assay type: single protein

Amino acid sequences for entries named in this document (tags omitted).
UniProt P40763, whole entry: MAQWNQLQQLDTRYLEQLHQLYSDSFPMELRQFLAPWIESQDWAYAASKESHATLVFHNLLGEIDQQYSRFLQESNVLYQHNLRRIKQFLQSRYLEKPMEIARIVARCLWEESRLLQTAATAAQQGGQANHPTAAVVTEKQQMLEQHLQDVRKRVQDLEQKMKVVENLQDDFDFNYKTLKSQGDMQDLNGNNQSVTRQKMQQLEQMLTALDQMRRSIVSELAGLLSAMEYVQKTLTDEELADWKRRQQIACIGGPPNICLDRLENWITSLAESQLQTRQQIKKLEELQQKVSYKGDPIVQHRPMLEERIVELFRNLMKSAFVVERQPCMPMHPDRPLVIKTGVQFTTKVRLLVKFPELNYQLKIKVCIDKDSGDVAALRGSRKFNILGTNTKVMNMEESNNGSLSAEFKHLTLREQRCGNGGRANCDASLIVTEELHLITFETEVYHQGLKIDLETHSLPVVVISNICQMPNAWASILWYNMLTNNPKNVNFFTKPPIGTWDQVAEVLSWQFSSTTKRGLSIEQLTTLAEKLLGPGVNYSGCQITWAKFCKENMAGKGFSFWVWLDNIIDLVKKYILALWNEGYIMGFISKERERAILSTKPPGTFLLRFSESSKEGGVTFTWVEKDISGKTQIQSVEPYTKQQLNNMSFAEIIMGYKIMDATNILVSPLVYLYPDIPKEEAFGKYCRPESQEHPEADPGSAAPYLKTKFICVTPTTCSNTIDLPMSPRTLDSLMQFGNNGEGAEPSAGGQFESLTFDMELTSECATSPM

pIC50: 4.75
Structure (SMILES): COc1ccc(C2=Nn3c(nnc3-c3[nH]nc4c3CCC4)SC2)cc1

Reference: ChEMBL document CHEMBL5727654 (2020)
